Test results as given in ChEMBL document CHEMBL4346746, “Inhibition of 3-phosphoglycerate dehydrogenase (PHGDH) by indole amides abrogates de novo serine synthesis in cancer cells” (Bioorg Med Chem Lett, 2019).

Legend:
[1] = Permeability of the compound at 10 uM at pH 7.4 by PAMPA; assay type: ADME; conditions: read-out: permeability
[2] = Apparent permeability across apical to basolateral side in MDCK cells overexpressing MDR1; assay type: ADME, cell-based, Canis lupus familiaris; conditions: dog
[3] = molecular target: T1, D-3-phosphoglycerate dehydrogenase (Homo sapiens, UniProt O43175); test: Inhibition of PHGDH (unknown origin) using 11 nM of PHGDH and 3-PG as substrate incubated for 20 mins in presence of NAD+, PSAT1, PSPH by diaphorase and resazurin dye based fluorescence assay
T1 sequence (O43175 whole entry): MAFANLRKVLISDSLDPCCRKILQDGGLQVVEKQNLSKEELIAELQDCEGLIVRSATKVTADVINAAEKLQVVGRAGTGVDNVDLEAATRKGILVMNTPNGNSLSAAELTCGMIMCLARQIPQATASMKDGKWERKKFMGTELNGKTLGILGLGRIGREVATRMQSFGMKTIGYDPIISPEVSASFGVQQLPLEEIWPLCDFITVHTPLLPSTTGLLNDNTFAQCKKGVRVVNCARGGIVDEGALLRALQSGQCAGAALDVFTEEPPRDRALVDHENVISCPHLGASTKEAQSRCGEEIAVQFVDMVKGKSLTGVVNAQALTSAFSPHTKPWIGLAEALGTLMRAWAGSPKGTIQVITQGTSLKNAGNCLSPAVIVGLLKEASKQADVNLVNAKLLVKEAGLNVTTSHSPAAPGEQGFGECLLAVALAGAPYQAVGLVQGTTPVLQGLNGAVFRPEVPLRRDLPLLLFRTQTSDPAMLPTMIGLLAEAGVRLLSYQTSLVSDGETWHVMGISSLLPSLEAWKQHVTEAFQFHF

[4] = Efflux ratio of apparent permeability across basolateral to apical over apical to basolateral side in MDCK cells overexpressing MDR1; assay type: ADME, cell-based, Canis lupus familiaris; conditions: dog
[5] = molecular target: T1, D-3-phosphoglycerate dehydrogenase; test: Inhibition of PHGDH (unknown origin) using 140 nM of PHGDH and 3-PG as substrate incubated for 20 mins in presence of NAD+, PSAT1, PSPH by diaphorase and resazurin dye based fluorescence assay
[6] = molecular target: T1, D-3-phosphoglycerate dehydrogenase; test: Inhibition of PHGDH (unknown origin)
In short: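 Human PHGDH activity measured in an enzyme-coupled assay. NADH formed is coupled by diaphorase to resazurin reduction, and the fluorescent resorufin is read. Downstream enzymes PSAT1 and PSPH are added to the mix to prevent 3-PHP feedback inhibition. IC50 is derived from this assay. Some values were obtained with a low PHGDH concentration.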

[7] = molecular target: T1, D-3-phosphoglycerate dehydrogenase; test: Inhibition of PHGDH (unknown origin) by surface plasmon resonance method
[8] = molecular target: T1, D-3-phosphoglycerate dehydrogenase; test: Mixed type inhibition of PHGDH (unknown origin) using 3-PG as substrate incubated for 20 mins in presence of , PSAT1, PSPH and varying NAD+ by diaphorase and resazurin dye based fluorescence assay

| SMILES | Papp at 10 µM [1] | Papp [2] | also measured |
| --- | --- | --- | --- |
| Cn1c(C(=O)NC2(c3ccc(C(CC(=O)O)c4cccnc4)cc3)COC2)cc2c(Cl)c(Cl)ccc21 (stereo not given) | 1.6 ×10⁻⁶ cm/s |  |  |
| COc1cc2c(cc1Cl)cc(C(=O)NC(CO)c1ccc(C(=O)O)cc1)n2C (stereo not given) |  | 0.1 ×10⁻⁶ cm/s |  |
| Cn1c(C(=O)NC2(c3ccc(C(C(=O)O)c4cccnc4)cc3)COC2)cc2c(Cl)c(Cl)ccc21 (racemic) |  | < 0.2 ×10⁻⁶ cm/s |  |
| Cn1c(C(=O)NC2(c3ccc(CC(=O)O)c(F)c3)COC2)cc2c(Cl)c(Cl)ccc21 | 4.5 ×10⁻⁶ cm/s |  |  |
| Cn1c(C(=O)NC2(c3ccc([C@H](O)c4cccnc4)cc3)COC2)cc2c(Cl)c(Cl)ccc21 | 25.2 ×10⁻⁶ cm/s | 0.61 ×10⁻⁶ cm/s |  |
| Cn1c(C(=O)NC2(c3ccc(C(=O)O)nc3)COC2)cc2c(Cl)c(Cl)ccc21 | 1.3 ×10⁻⁶ cm/s | 0.1 ×10⁻⁶ cm/s |  |
| Cn1c(C(=O)NC2(c3ccc(CC(=O)NS(C)(=O)=O)cc3)COC2)cc2c(Cl)c(Cl)ccc21 |  | < 0.2 ×10⁻⁶ cm/s |  |
| Cn1c(C(=O)NC2(c3ccc([C@@H](O)c4cccnc4)cc3)COC2)cc2c(Cl)c(Cl)ccc21 | 20.8 ×10⁻⁶ cm/s | 0.49 ×10⁻⁶ cm/s |  |
| Cn1c(C(=O)NC2(c3ccc(C(=O)O)c(F)c3)COC2)cc2c(Cl)c(Cl)ccc21 |  | 0.5 ×10⁻⁶ cm/s |  |
| Cn1c(C(=O)NC2(c3ccc(CC(=O)O)cc3)COC2)cc2c(Cl)c(Cl)ccc21 |  | < 0.2 ×10⁻⁶ cm/s | IC50 [3]: 30 nM |
| CONC(=O)Cc1ccc(C2(NC(=O)c3cc4c(Cl)c(Cl)ccc4n3C)COC2)cc1 | 27.3 ×10⁻⁶ cm/s | 0.8 ×10⁻⁶ cm/s |  |
| Cn1c(C(=O)NC2(c3ccc(CO)cc3)COC2)cc2c(Cl)c(Cl)ccc21 | 15.4 ×10⁻⁶ cm/s | 12.5 ×10⁻⁶ cm/s |  |
| Cn1c(CNC2(c3ccc(C(=O)O)cc3)COC2)cc2c(Cl)c(Cl)ccc21 |  | 2.4 ×10⁻⁶ cm/s | Ratio [4]: 1.5 |
| Cn1c(C(=O)NC2(c3ccc(C(=O)O)cc3)COC2)cc2c(Cl)c(Cl)ccc21 | 5.2 ×10⁻⁶ cm/s | 0.6 ×10⁻⁶ cm/s | IC50 [5]: 153 nM |
| CC(=O)OC(C)OC(=O)C(c1ccc(C2(NC(=O)c3cc4c(Cl)c(Cl)ccc4n3C)COC2)cc1)c1cccnc1 (stereo not given) | 11.8 ×10⁻⁶ cm/s | 0.42 ×10⁻⁶ cm/s |  |
| O=C1NC[C@@H](COc2cc3[nH]c(C(=O)N[C@H](CO)c4ccc(C(=O)O)cc4)cc3cc2Cl)O1 |  | < 0.2 ×10⁻⁶ cm/s | IC50 [6]: 260 nM; IC50 [5]: 238 nM; IC50 [7]: 238 nM; Ki [8]: 214 nM |
